Experiments:
Human autotaxin enzyme [1] = target: T1, Human autotaxin enzyme (Homo sapiens, UniProt Q13822); test: Evaluation of autotaxin inhibitor, Method B (Test Example 2): TG-mTMP fluorescence; assay type: biochemical; conditions: read-out: Inhibitory Activity (autotaxin enzyme inhibitory activity, IC50 class), Assay Method B (Test Example 2)
Human autotaxin enzyme [2] = target: T1, Human autotaxin enzyme; test: Evaluation of autotaxin inhibitor, Method C (Test Example 3): 18:0 Lyso PC, choline assay, Resorufin fluorescence; conditions: read-out: Inhibitory Activity (autotaxin enzyme inhibitory activity, IC50 class), Assay Method C (Test Example 3), 18:0 Lyso PC substrate
Method: (Method C) Evaluation of Autotaxin Inhibitor
Solution B containing 100 mM Tris-HCl buffer (pH7.5), 150 mM NaCl, 5 mM MgCl2 and 0.05% Triton X-100 was prepared. Human autotaxin enzyme (purchased from R&D System) was diluted with Solution B, and 2.5 μL of which was added to a solution of test compound in DMSO. Furthermore, 2.5 μl of 200 μM 18:0 Lyso PC (purchased from Avanti Polar Lipids) in Solution B was added and allowed to react at room temperature for 2 hours. After completion of the reaction, 15 μL of the coline assay reagent (100 mM Tris-HCl buffer (pH7.5), 5 mM MgCl2, 77 μg/mL choline oxidase, 10 μg/mL peroxidase, 25 μM 10-acetyl-3,7-dihydroxyphenoxazine and excess autotaxin inhibitor) was added and allowed to react at room temperature for 20 minutes. The fluorescent dye Resorufin, which was produced by the reaction, was detected. The fluorescence was detected using ViewLux (PerkinElmer, Inc.) with an excitation wavelength of 531 nm and a fluorescence wavelength of 598 nm.
The percent inhibition of the test compound was calculated by assuming the sample with no test compound as 0% inhibition and the sample with no enzyme as 100% inhibition, and the percent inhibitions at different concentrations of the test compound were plotted to obtain a concentration-dependent curve.

| Structure (SMILES) | IC50 (Human autotaxin enzyme [1]) [nM] | IC50 (Human autotaxin enzyme [2]) [nM] |
| --- | --- | --- |
| CCCCCn1c(N2CCCC2CCC(C)C)cc(=O)n2cc(-c3ccc(Cl)cc3)nc12 (centres unmarked) | 10 to 100 | – |
| CCCCCn1c(N2CCC[C@H]2C(=O)NC(C)(C)CC(=O)OCC)cc(=O)n2cc(-c3ccc(Cl)cc3)nc12 | – | 10 to 100 |

From patent publication US20160002247A1, “8-SUBSTITUTED IMIDAZOPYRIMIDINONE DERIVATIVE HAVING AUTOTAXIN INHIBITORY ACTIVITY” (THE UNIVERSITY OF TOKYO, priority 2013, published 2016)
